{
  "source": "patent US20050119337A1",
  "about": "“Methods of application of Schisandrin B in the preparation of anticancer medications” (priority 2003, published 2005)",
  "system": "human epidermoid carcinoma MDR cell line KBV200",
  "assay": "Reversal of drug resistance of KBV200, MTT assay, 72 h",
  "conditions": "IC50 in the absence / IC50 in the presence of Schisandrin B (10 μg/ml)",
  "data": [
    {"compound": "COc1cccc2c1C(=O)c1c(O)c3c(c(O)c1C2=O)C[C@@](O)(C(=O)CO)C[C@@H]3O[C@H]1C[C@H](N)[C@H](O)[C@H](C)O1", "note": "[Doxorubicin, doxorubicin]", "values": [
      {"measurement": "RF (Schisandrin B)", "value": 4.74}
    ]}
  ]
}
